Experimental data taken from article PMC2063102, “Enhancement of the anti-tumour effects of the antivascular agent 5,6-dimethylxanthenone-4-acetic acid (DMXAA) by combination with 5-hydroxytryptamine and bioreductive drugs” (British Journal of Cancer, 1998).

Test: in vivo
Settings: female, C3H/HeN, mouse

With `Cc1ccc2c(=O)c3cccc(CC(=O)O)c3oc2c1C` [DMXAA, 5,6-dimethylxanthenone-4-acetic acid] the MTD was 90 µmol/kg and the MTD (ip) was 90 µmol/kg.
